{"source": "ChEMBL document CHEMBL5725263", "about": "“Pyrrolone or pyrrolidinone melanin concentrating hormone receptor-1 antagonists” (2016)", "assay": "Radioligand Binding Assay: An in vitro binding assay was used to determine the compound Ki value or ability to antagonize binding of a peptide agonist to the human melanin concentrating hormone receptor (MCHR1). Membranes from stably transfected HEK-293 cells expressing a mutated (E4Q, A5T) hMCHR1 receptor were prepared by dounce homogenization and differential centrifugation. Binding experiments were carried out with 0.5-1.0 ug of membrane protein incubated in a total of 0.2 mL in 25 mM HEPES (pH 7.4) with 10 mM MgCl2, 2 mM EGTA, and 0.1% BSA (Binding Buffer) for 90 min. For competition binding assays, reactions were carried out in the presence of with 0.06-0.1 nM [Phe13, [125I]Tyr19]-MCH and increasing concentrations of unlabeled test molecules. Reactions were terminated by rapid vacuum filtration over 96 well-GFC UNIFILTER plates pre-coated with 0.075 mL binding buffer containing 1% BSA, and washed 3 times with 0.4 mL of Phospho-buffered Saline (pH 7.4) containing 0.01% TX-100. Filters were dried, 0.05 mL MicroScint 20 was added to each well and radioactivity was subsequently quantified by scintillation counting on a TOPCOUNT microplate scintillation counter (Packard). Inhibitory constants were determined by nonlinear least squares analysis using a four parameter logistic equation."}
{"smiles": "CCc1cc(N2CC[C@H](Oc3ccc(C4CC4)cc3)C2=O)ccc1OCCN1CC[C@@H](C)C1", "values": [{"measurement": "Ki", "value": 2, "unit": "nM"}]}
{"smiles": "O=C1C(Oc2ccc(C3CC3)cc2)=CCN1c1ccc(OCCN2CC(O)C2)c(OC(F)F)c1", "values": [{"measurement": "Ki", "value": 0.6, "unit": "nM"}]}
{"smiles": "Cc1cc(N2CC[C@H](Oc3ccc(C4CC4)cc3)C2=O)ccc1OCCN1CCC1", "values": [{"measurement": "Ki", "value": 0.8, "unit": "nM"}]}
{"smiles": "COc1cc(N2CC=C(Oc3ccc(-c4ccccc4)cc3)C2=O)ccc1OCCN1CC(C)(O)C1", "values": [{"measurement": "Ki", "value": 0.7, "unit": "nM"}]}
{"smiles": "CCc1cc(N2CC[C@H](Oc3ccc(C4CC4)cc3)C2=O)ccc1OCCN1CC[C@H](C)C1", "values": [{"measurement": "Ki", "value": 3, "unit": "nM"}]}
{"smiles": "COc1cc(N2CCC(Oc3ccc(OC(F)(F)F)cc3)C2=O)ccc1OCCn1ccnc1", "note": "(stereo unspecified)", "values": [{"measurement": "Ki", "value": 239, "unit": "nM"}]}
